# Measurements as given in patent publication US6482804B1, “Compositions and methods for delivery of genetic material” (Wyeth, priority 1997, dated 2002).
# Format: physicochemical
# Source text: A composition according to this invention must be soluble. The endpoint of concentrations of the components of the complex is generally precipitation. It is preferred that the charge ratio of the benzylammonium-containing surfactant and the polynucleic acid be less than 1, and that excess positive charge be avoided. The conditions of the solution, and the amounts of polynucleic acid sequence and surfactant can be manipulated to increase solubility and reduce the toxicity of the surfactant concentrations. Desirably, the pH of the admixture is between 6 and 8, and more preferably between 6.2 and 7.2. The desired isotonicity, hypotonicity (<0.9% w/v NaCl or equivalent) or hypertonicity (>0.9% w/v NaCl or equivalent), can be adjusted by tonicity adjusting agents [see, e.g., Remington's, cited above]. ii. Additional studies were performed by mixing DNA at 5 mg/ml in higher concentrations of benzalkonium chloride, up to 0.04% w/v, in 10 mM citrate or phosphate buffers, pH 6.7 (±0.5), and 50 mM NaCl, substantially as described above. […] At higher than ≧0.1% w/v, benzalkonium chloride alone is soluble and forms micelles. […] Benzalkonium chloride at concentrations higher than ≧0.04% w/v under these conditions, in the presence of DNA formed a fine precipitate that contained DNA (determined by agarose gel electrophoresis of the precipitate). […]
substance,measurement,value
benzalkonium chloride,concentration at which benzalkonium chloride alone is soluble and forms micelles,≥ 0.1 % w/v
